{"source": "patent US5739334A", "about": "(Istituto Ricerca Francesco Angelini S.p.A., priority 1992, dated 1998)", "test_system": "serotonin reuptake", "test": "Chemical bond studies: serotonin reuptake (% inhibition)", "type": "binding", "data": [{"smiles": "O=c1n(CCCN2CCN(c3cccc(Cl)c3)CC2)nc2ccccn12", "note": "[trazodone]", "values": [{"measurement": "% inhibition, serotonin reuptake", "setting": "C = 10^-5 M", "result": 96.0, "unit": "%"}, {"measurement": "% inhibition, serotonin reuptake", "setting": "C = 10^-7 M", "result": "less than 45.0%"}]}]}
